{"source": "patent US8093209B2", "about": "“Methods of suppressing microglial activation and systemic inflammatory responses” (Cognosci, Incorporated, priority 2002, dated 2012)", "key": {"[1]": {"system": "thioglycollate-elicited peritoneal macrophages", "assay": "Competition between apoE and apoE mimetic peptide: [Ca2+]i on sequential stimulation", "assay_type": "cell-based, mouse", "description": "Competition between apoE and apoE mimetic peptide for binding site on the receptor. Changes in macrophage [Ca^2+]i upon stimulation with apoE and apoE-mimetic peptide were studied to determine whether these ligands bind to the same receptor. Fura-2/AM loaded macrophages were incubated overnight, plated on glass cover slips, stimulated with one ligand, and changes in [Ca^2+]i quantified. Cells were then stimulated with second ligand and Ca^2+ measurements repeated."}, "[2]": {"system": "thioglycollate-elicited peritoneal macrophages", "assay": "[Ca2+]i in Fura-2/AM treated single macrophages, digital imaging microscopy (Example 10)", "assay_type": "cell-based, mouse", "description": "Macrophage Harvesting. All experiments involving animals were first approved by the Duke Institutional Animal Care and Use Committee. Pathogen-free female C57BL/6 mice and ApoE deficient mice previously backcrossed 10 times to the C57BL/6 strain were obtained from the Jackson Laboratory (Bar Harbor, Me.). Thioglycollate-elicited peritoneal macrophages were harvested by peritoneal lavage using 10 ml of ice-cold Hanks' balanced salt solution containing 10 mM HEPES and 3.5 mM NaHCO3 (HHBSS), pH 7.4. The macrophages were pelleted by centrifugation at 4° C. at ˜800×g for 10 min and resuspended in RPMI 1640 media supplemented with 25 mM HEPES, 12.5 U/ml penicillin, 6.5 mg/ml streptomycin, and 5% fetal bovine serum. Cell viability was determined by the trypan blue exclusion method and was consistently greater then 95%.\nMeasurement of [Ca^2+]i in apoE and peptide treated macrophage. Changes in [Ca^2+]i levels in Fura-2/AM treated single cells were quantified using digital imaging microscopy in accordance with known techniques. Macrophages were plated on glass coverslips sitting in 35 mm Petri dishes at a density of 1.5×10^5 cells/cm^2, and allowed to adhere for 2 h in a humidified 5% CO2 incubator at 37° C. The non-adherent cells were aspirated and the monolayers were washed twice with HHBSS. 4 μM Fura-2/AM was incubated with the cells for thirty min in the dark at room temperature and [Ca^2+]i was subsequently measured using a digital imaging microscope in accordance with known techniques. After obtaining baseline measurements for 5 min, ligand (apoE, apoE mimetic peptide, or scrambled peptide) was added, and multiple [Ca^2+]i measurements were taken. To determine if signaling resulted from ligation of the ligand to LRP, cells were preincubated with a 1000-fold molar excess of RAP or 10 mM NiCl2, both of which inhibit ligand binding to LRP, for 5 min prior to stimulation with apoE or peptide. In experiments in which the involvement of a G protein was assessed, monolayers were incubated with 1 μg/ml pertussis toxin for 12 h at 37° C. and Ca^2+ measurements were made as stated above."}, "[3]": {"system": "lipoprotein receptor-related protein (LRP) receptor", "assay": "Receptor binding of 125I-apoE mimetic peptide to macrophages, competition with apoE", "design": "species or system mouse", "conditions": "radiolabeled peptide versus intact apoE", "description": "Receptor Binding Studies. Macrophages were plated in 48-well cell culture plates (Costar) at 2.5×10^5 cells per well and incubated for 3 h at 37° C. in a humidified 5% CO2 incubator. The plates were then cooled to 4° C. and unbound cells were removed by three consecutive rinses with ice-cold Hanks' balanced salt solution containing 20 mM Hepes and 5% BSA, pH 7.4 (binding buffer). To quantify direct binding of the ^125I-apoE mimetic peptide, varying amounts of radiolabeled peptide were added to each well in the presence or absence of 200-fold molar excess of unlabeled peptide. Specific binding to cells was determined by subtracting the amount of ^125I-apoE peptide bound in the presence of excess unlabeled peptide (nonspecific binding) from the amount of ^125I-apoE peptide bound in the absence of excess unlabeled peptide (total binding). For competition studies, 50 nM radiolabeled peptide was added to each well in the presence or absence of varying amounts (31.25 nM-4 μM) of unlabeled ApoE2 or P. Cells were then incubated at 4° C. for 12-16 h. Unbound ligand was removed from the wells and the cell monolayer was rinsed three times with ice-cold binding buffer. Cells were then solubilized with 1 M NaOH, 0.5% SDS at room temperature for >5 h before the contents of each well was added to polystyrene tubes and counted in a LKB-Wallac, CliniGamma 1272 γ-counter (Finland)."}}}
{"substance": "Ac-TEELRVRLASHLRKLRKRLL-amide [apoE-mimetic peptide]", "values": [{"measurement": "[Ca2+]i response on repeated or sequential ligand exposure (desensitization)", "setting": "[1]", "value": "marked attenuation in [Ca^2+]i response to subsequent peptide exposure"}, {"measurement": "cells examined showing increase in [Ca2+]i", "setting": "[2]", "value": "60-70%"}, {"measurement": "concentration needed for [Ca2+]i responses compared to intact apoE, molar basis", "setting": "[2]", "value": "higher concentrations of peptide were necessary"}, {"measurement": "increase in [Ca2+]i levels compared to buffer", "setting": "[2]; macrophage", "value": "2-3 fold"}, {"measurement": "competition for receptor binding", "setting": "[3]", "value": "competed with the intact protein for receptor binding"}]}
